Results as given in US9956192B2, “Selective histone deactylase 6 inhibitors” (H. Lee Moffitt Cancer Center and Research Institute, Inc., priority 2012, dated 2018).

The chains behind the UniProt entries cited, without tags or fusion partners.
UniProt Q13547, whole entry: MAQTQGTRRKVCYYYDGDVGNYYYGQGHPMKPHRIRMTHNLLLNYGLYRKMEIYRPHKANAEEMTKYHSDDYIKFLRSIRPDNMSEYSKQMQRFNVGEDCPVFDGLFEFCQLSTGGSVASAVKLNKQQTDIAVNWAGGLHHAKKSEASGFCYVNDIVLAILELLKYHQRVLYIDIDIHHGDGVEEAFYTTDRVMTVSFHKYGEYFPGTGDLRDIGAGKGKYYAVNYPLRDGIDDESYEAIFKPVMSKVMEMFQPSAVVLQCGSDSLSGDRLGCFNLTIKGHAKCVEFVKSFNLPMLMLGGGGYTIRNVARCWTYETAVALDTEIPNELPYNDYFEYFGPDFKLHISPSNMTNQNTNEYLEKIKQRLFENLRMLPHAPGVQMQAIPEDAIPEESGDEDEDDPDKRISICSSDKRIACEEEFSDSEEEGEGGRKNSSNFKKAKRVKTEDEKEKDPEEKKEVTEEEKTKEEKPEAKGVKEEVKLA

What was measured:
[1] = test system: B16 murine melanoma cells; assay: B16 melanoma cell growth inhibition assay (MTS); format: cell-based
[2] = target: human, recombinant full-length HDAC1 (Homo sapiens (Human), UniProt Q13547); assay: HDAC inhibition assay, HDAC1; format: biochemical

Compound: CCCCN(Cc1ccc(C(=O)NO)cc1)C(=O)Nc1ccccc1 [Compound 5g, 4-((1-butyl-3-phenylureido)methyl)-N-hydroxybenzamide]
- growth inhibition of B16 melanoma cell line (in words) [1]: capable of inhibiting the growth of B16 melanoma cell line
- reduction in activity at HDAC1 compared to MGCD0103 [2]: 30 fold
